Growth data for 15 compounds are collected here from PubChem BioAssay (NCI).

Values joined by “and” are separate entries in the source; they are usually repeats but may differ in a detail not shown here. Identical values can stand only once. This is a selection; strong and weak results do not stand in their true shares.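 Interpretation: 100, growth as untreated; towards 0, rising growth inhibition; 0, no net growth; 0 to -100, cell death. Compounds scoring below 10 were considered active.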 Active and inactive are the calls of the source.

The subject of this assay is RXF 393 renal. The assay is described as follows: NCI-60 one-dose screen, 48 h (100 = growth as untreated, 0 = no growth, -100 = all killed). Conditions: 10 µM.
As to `CCCOP(=S)(Cl)OCCC`, the growth is inactive: 110%.
As for `CN(C)CCS`, the growth was inactive: 100% and inactive: 101%.
The result for `O=C(O)C1(O)c2ccccc2-c2ccccc21` reads inactive: 114% and inactive: 87.5%; that for `Nc1cccc(Cl)c1.O=[N+]([O-])c1cc([N+](=O)[O-])c(O)c([N+](=O)[O-])c1`, inactive: 104%.
For the compound `OCCSCCO`, the growth is inactive: 121%.
Turning to `Nc1cc([As](Cl)Cl)cc(N)c1O`, the growth is inactive: 83.3%.
In the case of `O=[N+]([O-])N(CCN(CC(Br)([N+](=O)[O-])[N+](=O)[O-])[N+](=O)[O-])CC(Br)([N+](=O)[O-])[N+](=O)[O-]`, the growth is inactive: 115%.
The result for `O=C1N([N+](=O)[O-])CCN1[N+](=O)[O-]` reads inactive: 109%; that for `CC[N+]([O-])(CC)Cc1ccccc1.O=[N+]([O-])c1cc([N+](=O)[O-])c(S(=O)(=O)O)c([N+](=O)[O-])c1`, inactive: 99.1%.
Then `CP(=O)(OCCCl)N(CCCl)CCCl` (stereo not given), with inactive: 104%; and `CN(CCO)CCCl.O=[N+]([O-])c1cc([N+](=O)[O-])c(O)c([N+](=O)[O-])c1`, with inactive: 105%; and `CCN(CC)CCOC(=O)C(O)(c1ccccc1)c1cc(C)c(C)c(C)c1C` (stereo not given), with inactive: 79.2%.
The result for `CCN(CC)CCOC(=O)C(O)(c1ccccc1)c1cc(C)cc(C)c1C` (stereo not given) reads inactive: 99.9%; that for `CCN(C)CC.O=[N+]([O-])c1cc([N+](=O)[O-])c(O)c([N+](=O)[O-])c1`, inactive: 119%; that for `O=C(Cl)c1c([N+](=O)[O-])cc([N+](=O)[O-])cc1[N+](=O)[O-]`, inactive: 69.5%.
